Laboratory results from patent US20260098268A1, “COMPOSITIONS AND METHODS TO TREAT ALZHEIMER'S DISEASE AND OTHER BRAIN DISEASES” (priority 2022, published 2026).

By UniProt entry, the sequences of proteins in these tests, tags left out.
UniProt P47746, whole entry: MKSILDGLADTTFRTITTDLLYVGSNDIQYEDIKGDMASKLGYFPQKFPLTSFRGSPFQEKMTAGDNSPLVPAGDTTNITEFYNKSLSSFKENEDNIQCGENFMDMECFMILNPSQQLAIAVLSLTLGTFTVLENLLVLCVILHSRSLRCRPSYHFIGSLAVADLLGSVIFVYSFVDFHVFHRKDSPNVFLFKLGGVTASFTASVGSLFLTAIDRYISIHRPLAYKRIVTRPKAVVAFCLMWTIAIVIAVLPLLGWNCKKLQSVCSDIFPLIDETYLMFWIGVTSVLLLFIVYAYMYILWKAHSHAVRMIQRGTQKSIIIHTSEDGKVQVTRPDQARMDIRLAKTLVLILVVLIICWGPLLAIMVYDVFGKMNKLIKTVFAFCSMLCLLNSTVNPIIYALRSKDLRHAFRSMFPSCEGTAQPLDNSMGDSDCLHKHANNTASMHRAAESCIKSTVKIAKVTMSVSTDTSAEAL

Molecular target: CB1R (Mus musculus, UniProt P47746)
Settings: WIN 5 μM

## Cc1c(C(=O)c2cccc3ccccc23)c2cccc3c2n1[C@H](CN1CCOCC1)CO3 [WIN, WIN55,212-2]
WT mice, hippocampal CA1 pyramidal neurons
  suppression of IPSCs: about 40%
nKO (neuron-specific MAGL knockout) mice
  WIN-induced suppression of IPSCs compared with WT: significantly reduced
tKO (total MAGL knockout) mice
  WIN-induced suppression of IPSCs compared with WT: significantly reduced

Like-named read-outs stand apart in the source and are kept apart here.
